Measurements published in ChEMBL document CHEMBL1129379, “Heterocyclic ureas: inhibitors of acyl-CoA:cholesterol O-acyltransferase as hypocholesterolemic agents” (J Med Chem, 1996).

Sequences of proteins named here, by UniProt entry; tags and fusion partners are left off. Residues count along the entry.
UniProt G1SFD9, 1-524: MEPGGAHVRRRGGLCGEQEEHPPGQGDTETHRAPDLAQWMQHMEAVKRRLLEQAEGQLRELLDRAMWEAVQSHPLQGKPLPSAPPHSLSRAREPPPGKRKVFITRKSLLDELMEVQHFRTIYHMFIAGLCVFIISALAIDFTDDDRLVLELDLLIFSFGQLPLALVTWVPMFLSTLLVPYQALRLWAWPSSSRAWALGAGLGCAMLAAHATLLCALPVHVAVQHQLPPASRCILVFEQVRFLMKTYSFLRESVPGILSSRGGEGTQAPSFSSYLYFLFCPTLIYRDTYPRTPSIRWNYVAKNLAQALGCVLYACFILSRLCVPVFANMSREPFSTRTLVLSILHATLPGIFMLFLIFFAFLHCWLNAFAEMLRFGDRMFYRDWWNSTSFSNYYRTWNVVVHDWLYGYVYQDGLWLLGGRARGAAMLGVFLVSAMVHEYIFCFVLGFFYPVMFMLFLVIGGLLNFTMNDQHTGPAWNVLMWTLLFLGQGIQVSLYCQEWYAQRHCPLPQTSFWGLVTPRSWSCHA

Biological target: O-acyltransferase (Oryctolagus cuniculus, UniProt G1SFD9)
Assay: Acyl coenzyme A:cholesterol acyltransferase 1 inhibition in vitro measured in rabbit intestinal microsomes
Set-up: species or system Intestine
Summary of the method: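 ACAT activity in intestinal microsomes from cholesterol-fed rabbits, measured by incubation with 14C-labeled oleoyl-CoA; IC50 is the micromolar concentration giving 50% inhibition of enzyme activity.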

Row | IC50 | Structure (SMILES)
1 | 1500 nM | CCCCCCCCCCCCn1cnnc1NC(=O)Nc1c(C(C)C)cccc1C(C)C
2 | 390 nM | CCCCCCCCCCCCCSc1n[nH]c(NC(=O)Nc2c(C(C)C)cccc2C(C)C)n1
